Reference: US7989613B2, “Inhibition of metallo-β-lactamase by RNA” (priority 2005, dated 2011)

Target: B. cereus 5/B/6 metallo-β-lactamase (Bacillus cereus, UniProt P14488)
Experimental: Assay of the purified B. cereus 5/B/6 metallo-β-lactamase and B. cereus 569/H/9 β-lactamase I. Metallo-β-lactamase activity assays using cephalosporin C as substrate were determined as previously reported (Myers and Shaw, 1989). The cephalosporin C absorbance maximum at 260 nm was monitored as a function of time (Davies et al., 1974). One unit of activity is generally defined as the amount of enzyme required to catalyze the hydrolysis of about 1 μmol of β-lactam substrate (cephalosporin C) per minute at 30° C. at pH 7.0. […] The assays were carried out at 30° C. in a 0.1 cm path length quartz cell and the total assay volume was 250 μL.
Reversible inhibition studies for metallo-β-lactamase. To test for reversible inhibition, metallo-β-lactamase was incubated with various concentrations of the possible inhibitors in 50 mM MOPS buffer, pH 7.0. The enzyme activity remaining was determined (Myers and Shaw, 1989).
Various assays were conducted with the 30-mer RNA in the presence of metallo-β-lactamase to determine its inhibition values (IC50, Ki, and Ki′). […]
30-mer RNA. The IC50 value for the 30-mer RNA was determined by measuring the rate of enzymatic hydrolysis of cephalosporin C with different amounts of the 30-mer RNA.

Question: Which IC50 (read-out: IC50 for B. cereus 5/B/6 metallo-β-lactamase, 4.3 mM cephalosporin C, 50 mM MOPS pH 7.0, no added Zn2+) does the source give for 5′-GGGUCUGGCCC-3′ [11-mer RNA] here?
Answer: Its IC50 is 430 nM.

Question: What about the “IC50 / inhibition of metallo-β-lactamase, range in words” value (stated in words) of the same substance?
Answer: Its value is “nanomolar range”.
